{
  "sequences": {"note": "Sequences of proteins named here, by UniProt entry; tags and fusion partners are left off.", "UniProt P70218, whole entry": "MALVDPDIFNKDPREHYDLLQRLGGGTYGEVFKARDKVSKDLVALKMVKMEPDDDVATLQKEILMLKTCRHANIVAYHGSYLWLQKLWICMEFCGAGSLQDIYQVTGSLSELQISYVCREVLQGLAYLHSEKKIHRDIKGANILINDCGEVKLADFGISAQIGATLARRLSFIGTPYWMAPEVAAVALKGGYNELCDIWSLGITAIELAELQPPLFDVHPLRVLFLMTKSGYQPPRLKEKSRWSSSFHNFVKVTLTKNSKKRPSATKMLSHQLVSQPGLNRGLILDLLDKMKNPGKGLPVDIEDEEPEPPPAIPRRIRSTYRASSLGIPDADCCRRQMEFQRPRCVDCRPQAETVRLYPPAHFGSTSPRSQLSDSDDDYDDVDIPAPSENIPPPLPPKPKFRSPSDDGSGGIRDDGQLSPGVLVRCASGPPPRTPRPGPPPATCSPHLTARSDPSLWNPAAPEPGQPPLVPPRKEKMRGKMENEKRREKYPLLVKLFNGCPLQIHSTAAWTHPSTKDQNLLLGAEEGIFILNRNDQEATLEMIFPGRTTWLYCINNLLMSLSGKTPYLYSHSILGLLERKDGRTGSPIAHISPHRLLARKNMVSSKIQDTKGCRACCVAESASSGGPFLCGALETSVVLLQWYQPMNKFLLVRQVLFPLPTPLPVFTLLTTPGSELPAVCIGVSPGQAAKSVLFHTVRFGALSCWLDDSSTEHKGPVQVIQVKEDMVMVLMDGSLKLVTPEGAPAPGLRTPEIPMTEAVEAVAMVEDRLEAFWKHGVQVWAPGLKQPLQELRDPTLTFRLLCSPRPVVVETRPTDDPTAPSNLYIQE"},
  "source": "ChEMBL document CHEMBL6074671",
  "about": "“Discovery of Pyridine-2-Carboxamides Derivatives as Potent and Selective HPK1 Inhibitors for the Treatment of Cancer” (J Med Chem, 2024)",
  "key": {"[1]": {"experiment": "Selectivity ratio of IC50 for JAK3 (unknown origin) to IC50 for human recombinant wild type N-terminal HPK1 (1 to 346 residues)"}, "[2]": {"target": "Mitogen-activated protein kinase kinase kinase kinase 1 (Mus musculus) (UniProt P70218)", "experiment": "In vivo inhibition of HPK1 in C57BL/6 mouse implanted with mouse MC38 cells assessed as reduction in pSLP76 level in CD4+ T-cells administered as po BID", "assay_type": "functional, organism-based", "details": "dose 3-10 mg/kg"}, "[3]": {"experiment": "Selectivity ratio of IC50 for ITK (unknown origin) to IC50 for human recombinant wild type N-terminal HPK1 (1 to 346 residues)"}, "[4]": {"experiment": "Selectivity ratio of IC50 for SYK (unknown origin) to IC50 for human recombinant wild type N-terminal HPK1 (1 to 346 residues)"}, "[5]": {"experiment": "Selectivity ratio of IC50 for SRC (unknown origin) to IC50 for human recombinant wild type N-terminal HPK1 (1 to 346 residues)"}, "[6]": {"experiment": "Selectivity ratio of IC50 for LCK (unknown origin) to IC50 for human recombinant wild type N-terminal HPK1 (1 to 346 residues)"}, "[7]": {"target": "Mitogen-activated protein kinase kinase kinase kinase 1 (Mus musculus) (UniProt P70218)", "experiment": "In vivo inhibition of HPK1 in Balb/c mouse implanted with mouse CT26 cells assessed as reduction in pSLP76 level in CD4+ T-cells administered as po BID", "assay_type": "functional, organism-based", "details": "dose lower […], dose upper 12.0 mg/kg"}, "[8]": {"experiment": "Selectivity ratio of IC50 for ABL (unknown origin) to IC50 for human recombinant wild type N-terminal HPK1 (1 to 346 residues)"}, "[9]": {"tested_on": "MC-38", "experiment": "Synergistic antitumor activity against mouse MC38 cells implanted in C57BL/6 mouse model assessed as reduction in M2-like macrophage at 3 mg/kg, po BID in presence of anti-PD1", "assay_type": "functional, organism-based"}, "[10]": {"experiment": "Selectivity ratio of IC50 for TYK2 (unknown origin) to IC50 for human recombinant wild type N-terminal HPK1 (1 to 346 residues)"}, "[11]": {"experiment": "Selectivity ratio of IC50 for CDK2 (unknown origin) to IC50 for human recombinant wild type N-terminal HPK1 (1 to 346 residues)"}, "[12]": {"tested_on": "CT26", "experiment": "Synergistic antitumor activity against mouse CT26 cells implanted in Balb/c mouse model assessed as reduction in M2-like macrophage at 1.5 to 12 mg/kg, po BID in presence of anti-PD1", "assay_type": "functional, organism-based", "details": "dose lower […], dose upper 12.0 mg/kg"}, "[13]": {"experiment": "Selectivity ratio of IC50 for FYN (unknown origin) to IC50 for human recombinant wild type N-terminal HPK1 (1 to 346 residues)"}, "[14]": {"experiment": "Selectivity ratio of IC50 for PLK4 (unknown origin) to IC50 for human recombinant wild type N-terminal HPK1 (1 to 346 residues)"}, "[15]": {"experiment": "Selectivity ratio of IC50 for MST2 (unknown origin) to IC50 for human recombinant wild type N-terminal HPK1 (1 to 346 residues)"}, "[16]": {"experiment": "Selectivity ratio of IC50 for IRAK4 (unknown origin) to IC50 for human recombinant wild type N-terminal HPK1 (1 to 346 residues)"}, "[17]": {"target": "Mitogen-activated protein kinase kinase kinase kinase 1 (Mus musculus) (UniProt P70218)", "experiment": "In vivo inhibition of HPK1 in Balb/c mouse implanted with mouse CT26 cells assessed as reduction in pSLP76 level in CD8+ T-cells administered as po BID", "assay_type": "functional, organism-based", "details": "dose lower […], dose upper 12.0 mg/kg"}, "[18]": {"target": "Tyrosine-protein kinase Lck (Homo sapiens, UniProt P06239)", "experiment": "Inhibition of LCK (unknown origin) at 10 uM relative to control"}, "[19]": {"target": "Mitogen-activated protein kinase kinase kinase kinase 1 (Mus musculus) (UniProt P70218)", "experiment": "In vivo inhibition of HPK1 in C57BL/6 mouse implanted with mouse MC38 cells assessed as reduction in pSLP76 level in CD8+ T-cells administered as po BID", "assay_type": "functional, organism-based", "details": "dose 3-10 mg/kg"}, "[20]": {"species": "Homo sapiens", "experiment": "Selectivity ratio of IC50 for human recombinant GST-tagged MAP4K3 (1 to 30 residues) to IC50 for human recombinant wild type N-terminal HPK1 (1 to 346 residues)"}, "[21]": {"species": "Homo sapiens", "experiment": "Selectivity ratio of IC50 for human recombinant full length GST tagged N-terminal MAP4K2 (1 to 820 end residues) to IC50 for human recombinant wild type N-terminal HPK1 (1 to 346 residues)"}, "[22]": {"experiment": "Selectivity ratio of IC50 for MSTI (unknown origin) to IC50 for human recombinant wild type N-terminal HPK1 (1 to 346 residues)"}, "[23]": {"target": "Mitogen-activated protein kinase kinase kinase kinase 1 (Mus musculus) (UniProt P70218)", "experiment": "In vivo inhibition of HPK1 in Balb/c mouse implanted with mouse CT26 cells assessed as reduction in pSLP76 level in spleen at 3 mg/kg, po measured over 6 hrs", "assay_type": "functional, organism-based"}, "[24]": {"experiment": "Selectivity ratio of IC50 for catalytic domain N-terminal GST tagged MAP4K4 (1 to 328 residues) (unknown origin) to IC50 for human recombinant wild type N-terminal HPK1 (1 to 346 residues)"}, "[25]": {"species": "Homo sapiens", "experiment": "Selectivity ratio of IC50 for catalytic domain human GST-tagged N-terminal MAP4K6 (1 to 314 residues) to IC50 for human recombinant wild type N-terminal HPK1 (1 to 346 residues)"}, "[26]": {"experiment": "Selectivity ratio of IC50 for TAOK2 (unknown origin) to IC50 for human recombinant wild type N-terminal HPK1 (1 to 346 residues)"}, "[27]": {"experiment": "Selectivity ratio of IC50 for PAK1 (unknown origin) to IC50 for human recombinant wild type N-terminal HPK1 (1 to 346 residues)"}, "[28]": {"experiment": "Selectivity ratio of IC50 for FLT3 (unknown origin) to IC50 for human recombinant wild type N-terminal HPK1 (1 to 346 residues)"}, "[29]": {"experiment": "Selectivity ratio of IC50 for BLK (unknown origin) to IC50 for human recombinant wild type N-terminal HPK1 (1 to 346 residues)"}, "[30]": {"experiment": "Selectivity ratio of IC50 for PAK3 (unknown origin) to IC50 for human recombinant wild type N-terminal HPK1 (1 to 346 residues)"}, "[31]": {"tested_on": "CT26", "experiment": "Synergistic antitumor activity against mouse CT26 cells implanted in Balb/c mouse model assessed as reduction in tumor growth administered as po dose BID measured after 15 days in presence of anti-PD1", "assay_type": "functional, organism-based", "details": "dose lower […], dose upper 12.0 mg/kg, time 15.0 day"}, "[32]": {"experiment": "Selectivity ratio of IC50 for JAK2 (unknown origin) to IC50 for human recombinant wild type N-terminal HPK1 (1 to 346 residues)"}, "[33]": {"experiment": "Selectivity ratio of IC50 for PAK2 (unknown origin) to IC50 for human recombinant wild type N-terminal HPK1 (1 to 346 residues)"}, "[34]": {"tested_on": "CT26", "experiment": "Antitumor activity against mouse CT26 cells implanted in Balb/c mouse model assessed as reduction in tumor growth administered as po dose BID measured after 15 days", "assay_type": "functional, organism-based", "details": "dose lower […], dose upper 12.0 mg/kg, time 15.0 day"}, "[35]": {"experiment": "Selectivity ratio of IC50 for RET (unknown origin) to IC50 for human recombinant wild type N-terminal HPK1 (1 to 346 residues)"}, "[36]": {"experiment": "Selectivity ratio of IC50 for p38 alpha (unknown origin) to IC50 for human recombinant wild type N-terminal HPK1 (1 to 346 residues)"}, "[37]": {"species": "Homo sapiens", "experiment": "Selectivity ratio of IC50 for human GST-tagged full length recombinant MAP4K5 to IC50 for human recombinant wild type N-terminal HPK1 (1 to 346 residues)"}, "[38]": {"experiment": "Selectivity ratio of IC50 for TAK1 (unknown origin) to IC50 for human recombinant wild type N-terminal HPK1 (1 to 346 residues)"}, "[39]": {"experiment": "Selectivity ratio of IC50 for LYNa (unknown origin) to IC50 for human recombinant wild type N-terminal HPK1 (1 to 346 residues)"}, "[40]": {"experiment": "Selectivity ratio of IC50 for JAK1 (unknown origin) to IC50 for human recombinant wild type N-terminal HPK1 (1 to 346 residues)"}, "[41]": {"tested_on": "T-cell", "experiment": "Inhibition of anti-CD3 stimulated human T cell proliferation at high concentration incubated for 72 hrs by luminescence based analysis", "assay_type": "functional"}, "[42]": {"tested_on": "T-cell", "experiment": "Inhibition of anti-CD3 stimulated human T cell proliferation assessed as reduction in cell viability at […] incubated for 72 hrs by luminescence based analysis", "assay_type": "functional", "details": "dose 1.11 µM"}},
  "note": "Calls of active or inactive are those of the source. The calls are words filed in the database; no cut-off is given here.",
  "data": [
    {"smiles": "COc1cc(Nc2ccc3c(n2)CN(C)C32CCN(C3COC3)CC2)c(C(N)=O)nc1-c1cccc2c1ncn2C", "values": [
      {"measurement": "Ratio IC50", "setting": "[1]", "result": "> 19600"},
      {"measurement": "Activity", "setting": "[2]", "result": "Dose-dependent-effect"},
      {"measurement": "Ratio IC50", "setting": "[3]", "result": "> 19600"},
      {"measurement": "Ratio IC50", "setting": "[4]", "result": "> 19600"},
      {"measurement": "Ratio IC50", "setting": "[5]", "result": "> 4140"},
      {"measurement": "Ratio IC50", "setting": "[6]", "result": "> 1020"},
      {"measurement": "Activity", "setting": "[7]", "result": "Dose-dependent-effect"},
      {"measurement": "Ratio IC50", "setting": "[8]", "result": "> 8660"},
      {"measurement": "Activity", "setting": "[9]", "result": "Active"},
      {"measurement": "Ratio IC50", "setting": "[10]", "result": "> 19600"},
      {"measurement": "Ratio IC50", "setting": "[11]", "result": "> 19600"},
      {"measurement": "Activity", "setting": "[12]", "result": "Active"},
      {"measurement": "Ratio IC50", "setting": "[13]", "result": "> 19600"},
      {"measurement": "Ratio IC50", "setting": "[14]", "result": "> 19600"},
      {"measurement": "Ratio IC50", "setting": "[15]", "result": "> 19600"},
      {"measurement": "Ratio IC50", "setting": "[16]", "result": "> 6860"},
      {"measurement": "Activity", "setting": "[17]", "result": "Dose-dependent-effect"},
      {"measurement": "inhibition", "setting": "[18]", "result": "> 50", "unit": "%"},
      {"measurement": "Activity", "setting": "[19]", "result": "Dose-dependent-effect"},
      {"measurement": "Ratio IC50", "setting": "[20]", "result": "> 637"},
      {"measurement": "Ratio IC50", "setting": "[21]", "result": "> 3410"},
      {"measurement": "Ratio IC50", "setting": "[22]", "result": "> 980"},
      {"measurement": "Activity", "setting": "[23]", "result": "inactive"},
      {"measurement": "Ratio IC50", "setting": "[24]", "result": "> 739"},
      {"measurement": "Ratio IC50", "setting": "[25]", "result": "> 227"},
      {"measurement": "Ratio IC50", "setting": "[26]", "result": "> 19600"},
      {"measurement": "Ratio IC50", "setting": "[27]", "result": "> 19600"},
      {"measurement": "Ratio IC50", "setting": "[28]", "result": "> 621"},
      {"measurement": "Ratio IC50", "setting": "[29]", "result": "> 3700"},
      {"measurement": "Ratio IC50", "setting": "[30]", "result": "> 19600"},
      {"measurement": "Activity", "setting": "[31]", "result": "Dose-dependent-effect"},
      {"measurement": "Ratio IC50", "setting": "[32]", "result": "> 19600"},
      {"measurement": "Ratio IC50", "setting": "[33]", "result": "> 19600"},
      {"measurement": "Activity", "setting": "[34]", "result": "Dose-dependent-effect"},
      {"measurement": "Ratio IC50", "setting": "[35]", "result": "> 5870"},
      {"measurement": "Ratio IC50", "setting": "[36]", "result": "> 19600"},
      {"measurement": "Ratio IC50", "setting": "[37]", "result": "> 363"},
      {"measurement": "Ratio IC50", "setting": "[38]", "result": "> 19600"},
      {"measurement": "Ratio IC50", "setting": "[39]", "result": "> 10100"},
      {"measurement": "Ratio IC50", "setting": "[40]", "result": "> 19600"}
    ]},
    {"smiles": "CN(C)Cc1nc(Nc2ccc(-c3cnc4cc(F)ccn34)c3c2C(=O)NC3)ccc1C1CCOCC1", "values": [
      {"measurement": "inhibition", "setting": "[41]", "result": "Active"},
      {"measurement": "inhibition", "setting": "[42]", "result": "Active"}
    ]}
  ]
}
